Antibody variant affinities, Ab-14 light chain, assay 1

The measurements come from Engelhart et al. 2022 (doi:10.1038/s41597-022-01779-4) through the FLAb antibody collection.

Target peptide (SARS-CoV-2 spike, HR2 region): PDVDLGDISGINAS

Each scFv is VH, a (GGGGS)3 linker, VL, as in the parent Ab-14, and differs from it in the CDRs of the light chain only.
VH: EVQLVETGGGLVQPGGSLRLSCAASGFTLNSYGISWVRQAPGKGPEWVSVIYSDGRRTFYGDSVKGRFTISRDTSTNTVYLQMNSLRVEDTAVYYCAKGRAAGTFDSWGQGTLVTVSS
VL: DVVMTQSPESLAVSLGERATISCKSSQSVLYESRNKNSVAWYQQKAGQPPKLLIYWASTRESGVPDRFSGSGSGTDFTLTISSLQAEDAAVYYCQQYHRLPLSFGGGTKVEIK

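The parent was found by panning a naive human phage display library on the peptide. The library (AAYL50) carries one to three amino acid substitutions per variant, with no insertions or deletions. The assay is AlphaSeq: two haploid yeast populations carry antibody and antigen on their surface. After mating in shaken culture at 30 °C for 16 h, diploids were selected and their barcode pairs sequenced. The ratio of observed to expected reads was calibrated, replicate by replicate, on BCL2-family standards whose Kd was known from biolayer interferometry. Each pool was mated in three replicate cultures.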

Sequences are complete VL domains.
The read-out is the apparent dissociation constant on a log10 scale (nM): the lower, the stronger.
"n.d." marks a missing value. The strain was present, yet no cells mated with the target were sequenced in that replicate, which points to weak or no binding.
Empty control strains, which show no peptide, gave a signal in 18% of pairings with library AAYL50; the median was 4.19 and 95% of these signals were weaker than 2.99. No background was subtracted. Also given: how often the same scFv was detected with the empty control strains, with their mean in brackets.
Parent in this assay: reference entry 0.65, copy in this library 1.68.

{"VL": "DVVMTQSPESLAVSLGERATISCKSSQSVLWESRNKNSVAWYQQKAGQPPKLLIYWASTREHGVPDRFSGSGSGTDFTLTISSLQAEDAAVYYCQQYHRLPLSFGGGTKVEIK", "log10 Kd (nM) by replicate": "1.28 0.96 0.94", "control signals": "2/9 (3.36)"}
{"VL": "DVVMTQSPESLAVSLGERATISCKSSQSVLNESKNKNSVAWYQQKAGQPPKLLIYWASTRESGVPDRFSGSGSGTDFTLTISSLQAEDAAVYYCQQYDRLPLSFGGGTKVEIK", "log10 Kd (nM) by replicate": "0.50 0.99 1.00", "control signals": "0/9"}
{"VL": "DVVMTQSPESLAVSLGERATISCKSSQSVLYEIRNKNSVAWYQQKAGQPPKLLIYWASTTESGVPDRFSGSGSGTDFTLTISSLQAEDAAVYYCQQYHRLPISFGGGTKVEIK", "log10 Kd (nM) by replicate": "n.d. 4.75 4.60", "control signals": "3/9 (4.70)"}
{"VL": "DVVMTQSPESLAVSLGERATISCKSSQSVLYESRNKNSVTWYQQKAGQPPKLLIYWASTRYSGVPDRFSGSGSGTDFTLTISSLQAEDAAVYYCQQYHRLPLFFGGGTKVEIK", "log10 Kd (nM) by replicate": "n.d. 4.06 n.d.", "control signals": "1/9 (4.67)"}
{"VL": "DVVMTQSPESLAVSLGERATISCKSSQSVLYQSRNKNSVAWYQQKAGQPPKLLIYWASTRWSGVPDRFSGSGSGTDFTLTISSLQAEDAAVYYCLQYHRLPLSFGGGTKVEIK", "log10 Kd (nM) by replicate": "2.79 n.d. n.d.", "control signals": "0/9"}
{"VL": "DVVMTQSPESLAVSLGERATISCKSSQSVLYESRNHNSVAWYQQKAGQPPKLLIYWASTRESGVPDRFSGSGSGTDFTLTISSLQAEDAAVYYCASYHRLPLSFGGGTKVEIK", "log10 Kd (nM) by replicate": "2.04 2.35 2.35", "control signals": "2/9 (4.60)"}
{"VL": "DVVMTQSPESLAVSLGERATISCKSSQSVLYESRNKNSVAWYQQKAGQPPKLLIYWAWTRESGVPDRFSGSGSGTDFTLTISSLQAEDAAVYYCQQYHRGPRSFGGGTKVEIK", "log10 Kd (nM) by replicate": "n.d. 3.20 n.d.", "control signals": "0/9"}
{"VL": "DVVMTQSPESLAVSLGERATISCKSSQSVLYDSRNKNSVGWYQQKAGQPPKLLIYWASTRESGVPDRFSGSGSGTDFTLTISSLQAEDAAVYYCQQYHRLPLSFGGGTKVEIK", "log10 Kd (nM) by replicate": "n.d. 4.49 n.d.", "control signals": "1/9 (3.94)"}
{"VL": "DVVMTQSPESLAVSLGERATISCKSSQSHLYERRNKNSVAWYQQKAGQPPKLLIYWADTRESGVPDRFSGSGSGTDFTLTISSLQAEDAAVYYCQQYHRLPLSFGGGTKVEIK", "log10 Kd (nM) by replicate": "2.16 2.00 2.11", "control signals": "3/9 (4.88)"}
{"VL": "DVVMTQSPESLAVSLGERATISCKSSQSVLGESRNKDSPAWYQQKAGQPPKLLIYWASTRESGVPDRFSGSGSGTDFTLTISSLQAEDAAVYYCQQYHRLPLSFGGGTKVEIK", "log10 Kd (nM) by replicate": "4.59 4.71 5.22", "control signals": "5/9 (4.66)"}
{"VL": "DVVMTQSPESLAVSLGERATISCKSSQSVLYESSNKLSVAWYQQKAGQPPKLLIYWASTRESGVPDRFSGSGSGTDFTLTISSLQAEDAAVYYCQQYHILPLSFGGGTKVEIK", "log10 Kd (nM) by replicate": "2.25 n.d. n.d.", "control signals": "0/9"}
{"VL": "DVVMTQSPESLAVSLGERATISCKSSQSVLYESVNKNSVAWYQQKAGQPPKLLIYWALTRESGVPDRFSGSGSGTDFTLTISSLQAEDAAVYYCQQYCRLPLSFGGGTKVEIK", "log10 Kd (nM) by replicate": "3.15 2.55 2.62", "control signals": "2/9 (4.43)"}
{"VL": "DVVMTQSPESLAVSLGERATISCKSSTSVLYESRNKGSVAWYQQKAGQPPKLLIYWASTRESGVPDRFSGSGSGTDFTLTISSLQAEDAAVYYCAQYHRLPLSFGGGTKVEIK", "log10 Kd (nM) by replicate": "n.d. n.d. n.d.", "control signals": "2/9 (4.63)"}
{"VL": "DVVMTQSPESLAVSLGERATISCKSKQSVLYESRNKNSVAWYQQKAGQPPKLLIYWASTPESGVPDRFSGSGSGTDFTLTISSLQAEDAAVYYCQQTHRLPLSFGGGTKVEIK", "log10 Kd (nM) by replicate": "n.d. n.d. n.d.", "control signals": "1/9 (3.07)"}
{"VL": "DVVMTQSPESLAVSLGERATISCKSSQGVLAESRNKNSVAWYQQKAGQPPKLLIYWASTRESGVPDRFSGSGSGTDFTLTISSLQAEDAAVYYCQQYHRLPLWFGGGTKVEIK", "log10 Kd (nM) by replicate": "2.00 1.83 1.95", "control signals": "4/9 (4.17)"}
{"VL": "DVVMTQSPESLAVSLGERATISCKSSQSVLYESGDVNSVAWYQQKAGQPPKLLIYWASTRESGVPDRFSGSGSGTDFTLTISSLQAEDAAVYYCQQYHRLPLSFGGGTKVEIK", "log10 Kd (nM) by replicate": "0.43 0.68 0.52", "control signals": "2/9 (5.48)"}
{"VL": "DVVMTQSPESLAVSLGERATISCKSSQSVLCESRQKNMVAWYQQKAGQPPKLLIYWASTRESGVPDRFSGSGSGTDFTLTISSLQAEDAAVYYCQQYHRLPLSFGGGTKVEIK", "log10 Kd (nM) by replicate": "n.d. 3.25 n.d.", "control signals": "0/9"}
{"VL": "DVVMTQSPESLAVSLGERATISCKSSQSVPYESRNKNSGAWYQQKAGQPPKLLIYWQSTRESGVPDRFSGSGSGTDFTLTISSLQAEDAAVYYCQQYHRLPLSFGGGTKVEIK", "log10 Kd (nM) by replicate": "5.40 3.81 3.66", "control signals": "3/9 (4.60)"}
{"VL": "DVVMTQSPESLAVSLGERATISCKSSQSVLYESRNKNSVAWYQQKAGQPPKLLIYWAGTRESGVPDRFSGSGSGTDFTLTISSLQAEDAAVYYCQHYHRLPWSFGGGTKVEIK", "log10 Kd (nM) by replicate": "n.d. n.d. n.d.", "control signals": "0/9"}
{"VL": "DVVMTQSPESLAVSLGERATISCESSQSVLYESRNSNSGAWYQQKAGQPPKLLIYWASTRESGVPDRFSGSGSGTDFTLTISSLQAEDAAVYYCQQYHRLPLSFGGGTKVEIK", "log10 Kd (nM) by replicate": "n.d. 4.44 n.d.", "control signals": "0/9"}
{"VL": "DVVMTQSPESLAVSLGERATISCKSSQSVLYESRNKNSVAWYQQKAGQPPKLLIYWASQRESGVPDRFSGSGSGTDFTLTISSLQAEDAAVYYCQQYHRLPLSFGGGTKVEIK", "log10 Kd (nM) by replicate": "0.54 0.90 0.76", "control signals": "6/9 (5.01)"}
{"VL": "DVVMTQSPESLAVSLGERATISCKSSQGVYYESRNDNSVAWYQQKAGQPPKLLIYWASTRESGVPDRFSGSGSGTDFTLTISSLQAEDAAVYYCQQYHRLPLSFGGGTKVEIK", "log10 Kd (nM) by replicate": "n.d. n.d. n.d.", "control signals": "0/9"}

A selection of 3 entries from above:

{"VL": "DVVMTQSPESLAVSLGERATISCKSSQSVLNESKNKNSVAWYQQKAGQPPKLLIYWASTRESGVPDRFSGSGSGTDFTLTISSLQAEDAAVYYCQQYDRLPLSFGGGTKVEIK", "log10 Kd (nM) by replicate": "0.50 0.99 1.00", "control signals": "0/9"}
{"VL": "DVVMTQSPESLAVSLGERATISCKSSQSVLYESRNKNSVTWYQQKAGQPPKLLIYWASTRYSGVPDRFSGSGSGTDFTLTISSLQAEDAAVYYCQQYHRLPLFFGGGTKVEIK", "log10 Kd (nM) by replicate": "n.d. 4.06 n.d.", "control signals": "1/9 (4.67)"}
{"VL": "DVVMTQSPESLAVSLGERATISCKSSQSVLWESRNKNSVAWYQQKAGQPPKLLIYWASTREHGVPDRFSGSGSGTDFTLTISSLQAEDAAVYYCQQYHRLPLSFGGGTKVEIK", "log10 Kd (nM) by replicate": "1.28 0.96 0.94", "control signals": "2/9 (3.36)"}